Reference: PubChem BioAssay AID602396 (The Scripps Research Institute Molecular Screening Center, 2012)
The entries are a selection whose mix differs from that of the whole data set. Some tests of the compounds listed are not included; inactive here does not mean inactive elsewhere. The source made the active and inactive calls.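 Rule for the calls: active = inhibition above the mean inhibition of all tested compounds plus 3 SD (cut at about 73% in these data); inactive = the rest.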

Amino acid sequences for entries named in this document (tags omitted).
UniProt O00482, whole entry: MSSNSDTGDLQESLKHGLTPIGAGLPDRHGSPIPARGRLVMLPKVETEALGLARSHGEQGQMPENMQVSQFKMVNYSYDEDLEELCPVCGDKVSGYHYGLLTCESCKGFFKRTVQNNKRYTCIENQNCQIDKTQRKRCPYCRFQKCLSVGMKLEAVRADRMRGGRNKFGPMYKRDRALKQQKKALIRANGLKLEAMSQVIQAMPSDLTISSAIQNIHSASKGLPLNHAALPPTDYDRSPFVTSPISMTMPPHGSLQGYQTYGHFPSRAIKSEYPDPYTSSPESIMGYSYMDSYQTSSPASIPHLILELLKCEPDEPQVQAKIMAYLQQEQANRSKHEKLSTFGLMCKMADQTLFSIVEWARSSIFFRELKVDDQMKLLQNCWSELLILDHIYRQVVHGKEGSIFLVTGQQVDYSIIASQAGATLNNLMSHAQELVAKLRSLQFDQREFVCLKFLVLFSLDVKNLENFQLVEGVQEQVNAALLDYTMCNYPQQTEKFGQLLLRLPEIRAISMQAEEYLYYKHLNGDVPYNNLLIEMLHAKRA

These molecules were tested against Nuclear receptor subfamily 5 group A member 2 (Homo sapiens) (UniProt O00482) (assay: LRH-1 (NR5A2) inverse agonists, primary screen, cell-based, luminescence, HEK293T, StAR-luciferase reporter (AID 602396;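 note: 0% = DMSO wells and 100% = reporter-only cells lacking LRH-1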)). Details: LRH-1 transfected, 24 h, at 3.6 µM, hits give high values.
`O=C(OC1CN2CCC1CC2)C(CO)(c1ccccc1)c1ccccc1` (stereo unspecified) was tested, and the inhibition was inactive: 2%.
`O=C(OCCN1CCCC1)C(O)(c1ccccc1)c1ccccc1` was tested, and the inhibition was inactive: 1.93%.
With `CC(C)Oc1ccc(C(=O)NCC2(N(C)C)CCCCC2)cc1` the inhibition was inactive: 17.1%.
In the case of `CN(C)c1cccc(C(=O)NCC2(N(C)C)CCCCC2)c1`, the inhibition is reported as inactive: -4.76%.
With `C=C(C)C#CC(O)(C(=O)OC1CCN(C)CC1)c1ccccc1` (stereo unspecified) the inhibition was inactive: 19.9%.
`COc1ccc(Br)c(C(=O)NCC2(N3CCCCC3)CCCCC2)c1` was tested, and the inhibition was inactive: -12.5%.
`COc1cc(C(=O)NCC2(N(C)C)CCCCC2)c([N+](=O)[O-])cc1OC` was tested, and the inhibition was inactive: -5.79%.
With `CN(C)C1(CNC(=O)c2ccc(Br)cc2)CCCCC1` the inhibition was inactive: -1.17%.
For `O=C(NCC1(N2CCCCC2)CCCCC1)c1cccc(Cl)c1`, the inhibition was inactive: -23.9%.
`COc1ccc(Cl)cc1C(=O)NCC1(N(C)C)CCCCC1` was tested, and the inhibition was inactive: -7.51%.
`COc1cccc(C(=O)NCC2(N3CCCCC3)CCCCC2)c1` was tested, and the inhibition was inactive: 0.98%.
`CN(C)c1ccc(C(=O)NCC2(N(C)C)CCCCC2)cc1` was tested, and the inhibition was inactive: -0.74%.
With `CN(C)C1CCCC1OC(=O)C(O)(c1ccccc1)c1ccccc1` (stereo unspecified) the inhibition was inactive: 4.91%.
`Cc1ccccc1C(=O)NCC1(N2CCCCC2)CCCCC1` was tested, and the inhibition was inactive: -5.1%.
`COc1ccc(C(=O)NCC2(N(C)C)CCCCC2)cc1` was tested, and the inhibition was inactive: 7.18%.
In the case of `O=C(NCC1(N2CCCCC2)CCCCC1)c1cccc(Br)c1`, the inhibition is reported as inactive: -22.8%.
`CCN1CCCC(OC(=O)C2(O)c3ccccc3C=Cc3ccccc32)C1` (stereo unspecified) was tested, and the inhibition was inactive: 9.97%.
With `Cc1cc(C(=O)NCC2(N3CCCCC3)CCCCC2)ccc1[N+](=O)[O-]` the inhibition was inactive: -28.6%.
With `O=C(NCC1(N2CCCCC2)CCCCC1)c1cc(F)c(F)cc1Cl` the inhibition was inactive: 9.16%.
`C=CCN1CCN(CCOC(=O)C(O)(c2ccccc2)c2ccccc2)CC1` was tested, and the inhibition was inactive: -6.83%.
For `CN1[C@@H]2CC[C@H]1CC(OC(=O)C(O)(c1ccccc1)c1ccccc1)C2` (stereo partly specified), the inhibition was inactive: -10.1%.
With `O=C(NCC1(N2CCCCC2)CCCCC1)c1cc([N+](=O)[O-])ccc1Cl` the inhibition was inactive: -1.11%.
In the case of `Cc1ccc(C(=O)NCC2(N3CCCCC3)CCCCC2)cc1`, the inhibition is reported as inactive: -45.5%.
`COc1cc(SC)ccc1C(=O)NCC1(N(C)C)CCCCC1` was tested, and the inhibition was inactive: 2.3%.
With `CCN(CC)CC(C)C(C)OC(=O)C(O)(c1ccccc1)c1ccccc1` (stereo unspecified) the inhibition was inactive: 5.37%.
With `CC(C)N1C(=O)CC2(CCN(CCOC(=O)C(O)(c3ccccc3)c3ccccc3)CC2)C1=O` the inhibition was inactive: -6.79%.
